We go through 50 compounds from PubChem BioAssay AID504845 (National Center for Advancing Translational Sciences (NCATS), 2011).

Chains of the proteins cited; added tags and fusions are not shown. Lines headed by an entry give the natural chain unless they say otherwise; changes in a name come on top.
UniProt P49798: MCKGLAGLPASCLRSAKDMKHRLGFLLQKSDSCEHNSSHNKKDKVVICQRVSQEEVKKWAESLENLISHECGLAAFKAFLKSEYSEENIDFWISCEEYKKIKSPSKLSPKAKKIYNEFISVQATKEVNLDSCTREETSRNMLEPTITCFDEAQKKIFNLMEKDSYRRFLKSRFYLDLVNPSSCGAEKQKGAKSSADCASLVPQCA

The entries are a selection whose mix differs from that of the whole data set. Results filed as inconclusive are left out. Active and inactive are the calls of the source. Calls follow the shape of the dose curve; as a rule, active = well fitted inhibition curve with a large enough effect; inconclusive = small, poorly fitted or top-dose-only effect; inactive = no such curve, though single readings can be large or run the other way.

This assay addresses Regulator of G-protein signaling 4 (Homo sapiens) (UniProt P49798). Description: Inhibitors of Regulator of G Protein Signaling (RGS) 4: qHTS. Also: nearly all actives have a fitted effect of over 75% in size. Particulars: Transcreener GDP fluorescence polarization, RGS4-accelerated GTP hydrolysis.
The mark [1] stands for this setting: at 114 µM (top of the series) unless noted.
% is scaled to controls: 0 for no effect and ±100 for the full control effect.

For `COc1ccc(C2=NCC(CBr)S2)cc1` (stereo not given), the activity change, negative = inhibition under setting [1] was inactive: -50.9%.

On to `O=C(O)CNc1ccc([As](=O)(O)O)cc1`, for which, under setting [1], the activity change, negative = inhibition is inactive: 27%. The same measure, in the same setting: the value for `COC(=O)C1(C)COP(=O)(Nc2ccccc2)OC1` (stereo not given) was inactive: -2.52%.

On to `O=[N+]([O-])c1cccc(NC2=NCC(CBr)S2)c1` (stereo not given), for which the activity change, negative = inhibition under setting [1] is inactive: -1.46%. Turning to `O=[N+]([O-])c1ncn(CCn2ncnc2[N+](=O)[O-])n1`, under setting [1], the activity change, negative = inhibition was inactive: 6.14% [at 56.9 µM]. Take `O=P(/N=c1/nc(-c2ccccc2)n(-c2ccccc2)s1)(Nc1ccccc1)Nc1ccccc1`: under setting [1], the activity change, negative = inhibition is inactive: -57.2%. For `O=C(Nc1cc([As](=O)(O)O)ccc1O)c1ccccc1`, under setting [1], the activity change, negative = inhibition was inactive: -11%. Consider `O=P1(N(CCCl)CCCl)OCCCS1` (stereo not given), for which the activity change, negative = inhibition under setting [1] is inactive: 4.33%. Regarding `Nc1cccc2ccc([As](=O)(O)O)cc12`, the activity change, negative = inhibition under setting [1] was inactive: -37.1%. `CCN(N=Nc1nonc1N)c1nonc1N`: the activity change, negative = inhibition under setting [1] is inactive: -2.36%. `CCOP(=O)(Nc1ccccc1)OCC`: the activity change, negative = inhibition under setting [1] was inactive: -8.18%. As to `CN(C(=O)Cc1ccc(Cl)c(Cl)c1)[C@H]1CCCC[C@@H]1N1CCCC1`, where the note is “at 114 µM (top of the series)”, the activity change, negative = inhibition was inactive: -13%.

For the compound `Cc1ccc(NP(=O)(Oc2ccccc2F)Oc2ccccc2F)nc1`, the activity change, negative = inhibition under setting [1] was inactive: 24.5%.

With `O=P(Nc1nc2ccc(Cl)cc2s1)(c1ccccc1)c1ccccc1`, under setting [1], the activity change, negative = inhibition is inactive: -4.92%. Turning to `CC(=O)Nc1ccc([As](=O)(O)O)cc1`, the activity change, negative = inhibition under setting [1] is inactive: -26.2%. Same read-out and setting: to `O=C(O)c1ccccc1[As](=O)(O)O` belongs inactive: -4.84%; to `CCCC1OP(N)(=O)OCC1CC` (stereo not given), inactive: -11.5%; to `Oc1ccccc1CNc1ccccn1`, inactive: 23.6%. On the same count and under the same terms, the value for `Nc1cc(N)c2nonc2c1[N+](=O)[O-]` was inactive: -12.3%; that for `CC(C)CC(=O)NC(Sc1ccc(Cl)cc1)C(Cl)(Cl)Cl` (stereo not given) was inactive: 19.7%; that for `CN1CCCC(OC(=O)C(c2ccccc2)c2ccccc2)C1` (stereo not given) was inactive: -5.86%. As for `Clc1ccc(Cl)c(NC2=NCC(CBr)S2)c1` (stereo not given), the activity change, negative = inhibition under setting [1] was inactive: -31%.

As to `COc1ccccc1OP(=O)(Nc1ccc(C)cn1)Oc1ccccc1OC`, the activity change, negative = inhibition under setting [1] was inactive: 26.3%. Consider `Cc1ccc(OP(=O)(Nc2nccs2)Oc2ccc(C)cc2)cc1`, for which the activity change, negative = inhibition under setting [1] was inactive: 27.5%. Take `CN(C(=O)Cc1ccc(Cl)c(Cl)c1)[C@H]1CCCC[C@H]1N1CCCC1`: the activity change, negative = inhibition under setting [1] was inactive: -6.36%. The same measure, in the same setting: to `Cc1ccc(N/C(=N/P(=O)(N2CCOCC2)N2CCOCC2)N2CCOCC2)cc1` belongs inactive: -17.1%; to `NC(=O)c1cc([N+](=O)[O-])cc([N+](=O)[O-])c1N`, inactive: 3.34% [at 56.9 µM].

For `O=[N+]([O-])c1cc(Oc2ccc([N+](=O)[O-])cc2C(F)(F)F)cc([N+](=O)[O-])c1`, under setting [1], the activity change, negative = inhibition is inactive: 4.2%. With `O=P1(N(CCCl)CCCl)OCCCN1CCCl` (stereo not given), the activity change, negative = inhibition under setting [1] is inactive: 7.82%.

Take `O=P1(N(CCCl)CCCl)Nc2ccccc2N1`: the activity change, negative = inhibition under setting [1] was inactive: 5.91%. `COc1ccc2nc(NP(=O)(c3ccccc3)c3ccccc3)sc2c1`: under setting [1], the activity change, negative = inhibition is inactive: -7.88%. Same read-out and setting: to `COc1cc(I)ccc1[As](=O)(O)O` belongs inactive: -20%; to `Cc1c2c(nc3ccccc13)SC(C(Cl)Cl)C2` (stereo not given), inactive: 15.2%; to `O=C(OC1CN2CCC1CC2)C12CC3CC(CC(C3)C1)C2` (stereo not given), inactive: 21.1%. As to `Cc1cc(=O)[nH]c(N[N+](=O)[O-])n1`, under setting [1], the activity change, negative = inhibition was inactive: 15.8%.

As to `CC(C)NC(=O)NP(=O)(Oc1ccccc1)Oc1ccccc1`, the activity change, negative = inhibition under setting [1] is inactive: 17%. On the same count and under the same terms, to `O=C(OC1CN2CCC1CC2)c1cccc2[nH]cnc12` (stereo not given) belongs inactive: -7.22%. Consider `CCN(CC)C(=S)SC(NC=O)C(Cl)(Cl)Cl` (stereo not given), for which the activity change, negative = inhibition under setting [1] is inactive: 24.6%. `O=[N+]([O-])c1cc([N+](=O)[O-])c(-c2ccn[nH]2)s1`: the activity change, negative = inhibition under setting [1] was inactive: -33.3%. For `ClCCSc1nnc(-c2cccnc2)o1`, the activity change, negative = inhibition under setting [1] was inactive: 16.6%.

For `COC(=O)C1(C)COP(=O)(N2CCCCCC2)OC1` (stereo not given), under setting [1], the activity change, negative = inhibition was inactive: -13.7%. With `CC(C)c1ccc(OP(=O)(Nc2ccccn2)Oc2ccccc2F)cc1` (stereo not given), the activity change, negative = inhibition under setting [1] was inactive: -8.33%. Still for that read-out and setting: the value for `Cc1ccc(OP(=O)(Nc2ccc([N+](=O)[O-])cn2)Oc2ccc(C)cc2)cc1` was inactive: 1.06%; that for `C[As](=O)(O)c1cccc(C(=O)O)c1` was inactive: 10.3%. With `O=[As](O)(c1ccc(O)cc1)c1ccccc1O`, the activity change, negative = inhibition under setting [1] was inactive: -31.9%. `O=[N+]([O-])c1ccc(-c2cc([N+](=O)[O-])c(O)c([N+](=O)[O-])c2)cc1`: the activity change, negative = inhibition under setting [1] is inactive: -35.3%.

As to `COc1cc(C(=O)NCC2(N3CCOCC3)CCCCC2)ccc1OCC(C)C`, under setting [1], the activity change, negative = inhibition was inactive: 16.9%. Take `O=P(Nc1ccccn1)(c1cccc2ccccc12)c1cccc2ccccc12`: the activity change, negative = inhibition under setting [1] is inactive: -7.5%.

Turning to `O=[N+]([O-])c1ccc(Nc2ccc(Oc3ccc([N+](=O)[O-])cc3[N+](=O)[O-])cc2)c([N+](=O)[O-])c1`, the activity change, negative = inhibition under setting [1] is inactive: 10.8%. For the compound `CCOC(=O)Nc1cccc([As](=O)(O)O)c1`, under setting [1], the activity change, negative = inhibition was inactive: 4.2% [at 56.9 µM].
